Values of other authors in patent US10946075B1 (priority 2014, dated 2021).
This is a selection: effects in other tests are not listed, and their absence says nothing.

Tests used:
rats = details: rat, po
[1] = US EPA

Substance | LD50 (rats) | LOEL (Lowest Observed Effect Level) [1] | NOEL (No Observed Effects Level) [1]
ferric hexacyanoferrate (II) | 1000 mg/kg |  | 
Ammonium Perchlorate |  | 0.02 mg/kg/day | 0.007 mg/kg/day
